Assay results reported in ChEMBL document CHEMBL5104103 (J Med Chem, 2022).
pIC50: −log10 of the molar value.

The chains behind the UniProt entries cited, without tags or fusion partners. Where a name states a change or a piece, a line headed by the entry shows the natural chain unless it says otherwise.
UniProt Q06187: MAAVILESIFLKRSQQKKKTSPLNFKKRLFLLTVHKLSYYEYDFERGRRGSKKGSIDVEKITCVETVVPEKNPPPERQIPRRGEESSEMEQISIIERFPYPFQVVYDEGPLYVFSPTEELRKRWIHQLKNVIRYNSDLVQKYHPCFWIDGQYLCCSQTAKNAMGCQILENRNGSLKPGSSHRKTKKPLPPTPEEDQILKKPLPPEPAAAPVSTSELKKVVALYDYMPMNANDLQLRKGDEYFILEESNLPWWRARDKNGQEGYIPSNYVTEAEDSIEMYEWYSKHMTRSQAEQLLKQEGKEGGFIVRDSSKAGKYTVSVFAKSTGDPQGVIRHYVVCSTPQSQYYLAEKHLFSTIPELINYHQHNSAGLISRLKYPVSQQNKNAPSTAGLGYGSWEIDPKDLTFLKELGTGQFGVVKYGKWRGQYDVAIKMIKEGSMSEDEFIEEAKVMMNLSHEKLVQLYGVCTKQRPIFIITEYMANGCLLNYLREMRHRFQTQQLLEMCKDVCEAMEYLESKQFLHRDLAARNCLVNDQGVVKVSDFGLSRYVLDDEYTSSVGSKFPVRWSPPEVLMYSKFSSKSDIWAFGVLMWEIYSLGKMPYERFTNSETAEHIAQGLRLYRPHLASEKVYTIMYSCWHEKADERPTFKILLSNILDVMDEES

Molecular target: Tyrosine-protein kinase BTK (Homo sapiens, UniProt Q06187)
Test: Inhibition of BTK (unknown origin) using peptide substrate in presence of ATP by caliper electrophoresis method

A pIC50 of 8.54 was found for `CC(C)/C=C(\C#N)C(=O)N[C@H](C)Cn1nc(-c2ccc(Oc3ccccc3)cc2F)c2c(N)ncnc21` in this work.
